The values that follow come from patent US9169290B2, “Peptides and their use” (priority 2007, dated 2015).

One test deals with C. albicans. Format: cell-based, Candida albicans. The protocol: (§1) Broth Dilution Antifungal Susceptibility Testing
(§2) The sensitivity of relevant fungal strains to the peptides was determined using Clinical Laboratory Standard Institute (CLSI; formerly NCCLS) Approved Standards.

A further test deals with C. krusei. Format: cell-based, Candida krusei. How it is done:
as §1, §2

In a further test the test system is Malasezzia furfur. The test is classed as cell-based. Particulars: Malasezzia furfur strain DSM6170. The protocol:
as §1, §2

For the next test, the system named is Trichophyton rubrum. Format: cell-based. Conditions: Trichophyton rubrum strain NCPF118. The protocol: as §1, §2

Values after ≈ are worked out from the molar mass of the structure shown. Read-outs that look alike come from different tables or passages of the source.

One may read the MIC as the least concentration at which growth counts as inhibited. Take `N=C(N)NCCC[C@H](NC(=O)[C@H](CCCNC(=N)N)NC(=O)[C@H](CCCNC(=N)N)NC(=O)[C@H](CCCNC(=N)N)NC(=O)[C@H](CCCNC(=N)N)NC(=O)[C@H](CCCNC(=N)N)NC(=O)[C@H](CCCNC(=N)N)NC(=O)[C@H](CCCNC(=N)N)NC(=O)[C@@H](N)CCCNC(=N)N)C(=O)O` [NP316, RRRRRRRRR]: the “MIC, Candida albicans NCTC3179” value with C. albicans (Candida spp. Type Strains MIC Data table, strain NCTC3179) was greater than 2000 µM. In addition, the MIC in the test with C. krusei (C. krusei strain ATCC6258) is less than 16 µM; in the test on C. krusei (C. krusei strain NCPF3953) it was 32 µM (≈ 45.6 µg/mL); against Malasezzia furfur, 125 µM (≈ 178 µg/mL); in the test with Trichophyton rubrum it was 0.5 µM (≈ 0.712 µg/mL). For the same molecule, the “MIC, Candida krusei NCPF3953” value against C. krusei (Candida spp. Type Strains MIC Data table, strain NCPF3953) stood at 8 µM (≈ 11.4 µg/mL).

In the case of `N=C(N)NCCC[C@H](NC(=O)[C@H](CCCNC(=N)N)NC(=O)[C@H](CCCNC(=N)N)NC(=O)[C@H](CCCNC(=N)N)NC(=O)[C@H](CCCNC(=N)N)NC(=O)[C@H](CCCNC(=N)N)NC(=O)[C@H](CCCNC(=N)N)NC(=O)[C@H](CCCNC(=N)N)NC(=O)[C@@H](N)CCCNC(=N)N)C(=O)O` [NP349, RRRRRRRRR], the MIC in the test with C. albicans (C. albicans strain NCTC3179) amounted to 2048 µM (≈ 2920 µg/mL); in the test with C. krusei (C. krusei strain NCPF3953) it was 8 µM (≈ 11.4 µg/mL).
